## scFv variants of Ab-14 (light chain) against a SARS-CoV-2 spike peptide

All variants were tested on one target, the spike HR2 peptide PDVDLGDISGINAS (SARS-CoV-2).

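AAYL50 was designed without a model: most single CDR substitutions and a random sample of double and triple ones. Affinity was read by AlphaSeq, a pooled yeast mating assay with surface-displayed partners. After mating in shaken culture at 30 °C for 16 h, diploids were selected and their barcode pairs sequenced. Scores were corrected for input abundance and mapped to Kd with protein pairs of known affinity run in the same pool. Each pool was mated in three replicate cultures.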

Parent: Ab-14, a human scFv built as VH, three GGGGS repeats, VL. Only the CDRs of the light chain vary.
VH: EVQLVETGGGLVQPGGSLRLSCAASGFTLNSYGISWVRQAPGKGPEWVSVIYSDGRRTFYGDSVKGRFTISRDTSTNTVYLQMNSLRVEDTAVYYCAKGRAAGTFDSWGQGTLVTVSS
VL: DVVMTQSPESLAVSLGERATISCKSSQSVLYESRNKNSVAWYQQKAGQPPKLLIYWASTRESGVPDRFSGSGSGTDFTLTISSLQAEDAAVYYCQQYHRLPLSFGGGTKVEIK

Variants are written as CDR1, CDR2 and CDR3 of the light chain (limits as in the source). Parent: KSSQSVLYESRNKNSVA, WASTRES, QQYHRLPLS.
Numbers give log10(Kd / nM), so 0 is 1 nM and 3 is 1 µM. Smaller is tighter.
An entry "ND" has no value in the source: the pair was not observed among the diploids in that replicate. This suggests poor binding but is not conclusive.
Parent in this assay: reference entry 0.65, copy in this library 1.68.

| # | CDR-L1 | CDR-L2 | CDR-L3 | replicates, log10 nM | control signals |
|---|---|---|---|---|---|
| 1 | KSSNSVLYESRNTNSVA | WASNRES | QQYHRLPLS | ND / ND / ND | 0/9 |
| 2 | KSKQSVLYECRNKNSVA | SASTRES | QQYHRLPLS | 1.39 / 1.62 / 1.68 | 2/9 (4.19) |
| 3 | KSSQSVLYFSRNYNSVA | WASTRES | QQYRRLPLS | 2.19 / 2.24 / 2.48 | 1/9 (2.92) |
| 4 | KNSQSVLYFSRNKNSVA | WASTRES | QQYHRTPLS | 3.33 / 2.00 / 2.09 | 0/9 |
| 5 | KSSQSVLYESRNKNSVA | WASWRES | QQYHRHPLS | 4.38 / 3.69 / ND | 3/9 (3.31) |
| 6 | KSTQSVLYERRNKNSVA | TASTRES | QQYHRLPLS | 2.80 / 2.09 / 2.28 | 1/9 (3.86) |
| 7 | KSSVSVLYESRNKNSVN | WASTRES | QQYLRLPLS | 4.85 / 4.67 / ND | 5/9 (4.30) |
| 8 | KSSTSVLYEYRNKNIVA | WASTRES | QQYHRLPLS | ND / ND / ND | 0/9 |
| 9 | KSSQSVLYESRNKNSVA | WSSTRES | QQYHRLPLF | 1.33 / 1.30 / 1.21 | 0/9 |
| 10 | KSRQSVLYESRNMYSVA | WASTRES | QQYHRLPLS | 0.86 / 0.85 / 1.21 | 1/9 (3.22) |
| 11 | KSSQSVLYESRNKNSVA | WKSTRES | QQYCRLPLS | 2.03 / 2.63 / 2.41 | 0/9 |
| 12 | KSSQSCLYESRNKNSVA | WASTREA | QQYHRKPLS | ND / 2.53 / 3.40 | 0/9 |
| 13 | KSSQSVLYESRNKNSVA | WGSHRES | HQYHRLPLS | 2.39 / 2.49 / 2.72 | 5/9 (4.63) |
| 14 | KSSQSVLYESRNKNSVA | WASTRES | QQYHRVELA | 0.52 / 0.99 / 0.70 | 1/9 (3.71) |
| 15 | KSSQSVLYESRNKNSVA | WASTRWS | QPYHRLPQS | ND / 3.14 / 3.61 | 0/9 |
| 16 | KSSQSVLYESFNKNSVA | RASTRES | QQYHRLPCS | ND / ND / ND | 1/9 (3.46) |
| 17 | KSSFSVLYESGNKNSVA | WASRRES | QQYHRLPLS | 0.23 / 0.31 / 0.61 | 0/9 |
| 18 | KSSQSVLYESQNKNSSA | WASTRES | QRYHRLPLS | ND / ND / ND | 0/9 |
| 19 | KSSQSVLYESRNPNSVA | WASTRES | QQGHRLPLS | ND / ND / ND | 2/9 (3.96) |
| 20 | KSSQSVLYFSRNKNSVA | WASTRES | QQYHRLGLY | 4.66 / 5.27 / ND | 3/9 (4.63) |
| 21 | KSSQSVLYFSRNKNSVA | WASTRES | QQYHRLPLS | 1.45 / 1.35 / 1.52 | 1/9 (3.44) |
| 22 | KSSQSVHYESRNKNSVA | WAWTRPS | QQYHRLPLS | ND / ND / ND | 0/9 |
| 23 | KSSQSVLYTSRNKNSVA | WASTREQ | QQYCRLPLS | ND / ND / ND | 0/9 |
| 24 | KSSQSVLYESRNKTSVA | WASTRES | QQEHRLPLC | ND / ND / ND | 2/9 (4.24) |
| 25 | KSSQSVLYEIRNKNMVA | WASTRES | QLYHRLPLS | ND / ND / ND | 1/9 (3.21) |
| 26 | KSCQSDLYESRNKNSVA | WASTRES | QQYHILPLS | 3.11 / 2.27 / 2.78 | 0/9 |
| 27 | KSVQSVLYEIRNKNSVA | WASTRES | QQYVRLPLS | ND / ND / ND | 1/9 (3.18) |
| 28 | KSSQSVLYESRNFNSVA | WASTFES | QQYDRLPLS | ND / ND / ND | 0/9 |
| 29 | KSSQSVLYESRNKNQVA | WASTVES | QQEHRLPLS | ND / 2.99 / 5.18 | 3/9 (3.86) |
| 30 | KSSQSVLYESRFKNSVA | WASTRLS | QQYHRLPLS | 0.80 / 0.84 / 0.83 | 0/9 |
| 31 | KSSQSVLCESRNKNSVA | AASTRES | QQYHRLPLS | 0.80 / 0.84 / 0.77 | 4/9 (5.24) |
| 32 | KSSQSNVYESRNKNSVV | WASTRES | QQYHRLPLS | 5.39 / ND / ND | 5/9 (4.41) |
| 33 | KSSQSVLYESRNKNSFA | WASTRLS | QQYRRLPLS | ND / 3.77 / ND | 0/9 |
| 34 | KSSQSVLYESRNINSVA | WASTRES | QQYHVLPLG | 1.78 / 1.69 / 1.63 | 2/9 (4.52) |
| 35 | KSSQSYLYYSRNKNSVA | WASTRES | QQYHRLPLS | ND / ND / ND | 2/9 (4.07) |
| 36 | KSSQSVLYESRNGNSVA | WASTRET | QQYHDLPLS | 2.60 / 1.71 / 2.28 | 3/9 (4.47) |
| 37 | PSSESVLYESRNKNSVA | WASTRNS | QQYHRLPLS | ND / ND / ND | 0/9 |
| 38 | KSSRTVLYESRNKNSVA | WASTREY | QQYHRLPLS | 1.39 / 1.47 / 1.51 | 4/9 (4.86) |
| 39 | KSSQSVLYESRNKNNVA | KASTRES | QQYHWLPLS | 0.34 / 0.43 / 0.41 | 2/9 (5.11) |
| 40 | KSSQSFLYESRNKNSVA | WAETDES | QQYHRLPLS | 3.76 / 3.24 / ND | 7/9 (4.71) |
| 41 | KSSQTVLYESRNKNSLA | WASTRES | IQYHRLPLS | 1.74 / 1.64 / 1.78 | 2/9 (5.09) |
| 42 | KSSQSVLGEGNNKNSVA | WASTRES | QQYHRLPLS | -0.22 / 0.39 / -0.10 | 3/9 (5.05) |
| 43 | KSSQKVLYESRNKNSVA | WASTRES | QMYFRLPLS | 0.91 / 1.38 / 0.94 | 1/9 (3.52) |
| 44 | KSSQSVLYESRNKNRVA | WASTRES | QQYHRMSLS | 5.06 / 3.38 / ND | 3/9 (4.68) |
| 45 | QSSQSVLYESRNTNSVA | WASTRES | AQYHRLPLS | 2.21 / 1.73 / 1.55 | 0/9 |
| 46 | KSSQSVLYESTFKNSVA | WASTRES | QQYHRLPLS | 0.48 / 0.87 / 0.77 | 1/9 (2.85) |
| 47 | KSQTSVLYESRNKNSVA | WASTREI | QQYHRLPLS | 0.78 / 0.91 / 0.72 | 0/9 |
| 48 | KSSQSVLYESRNKNSVA | WAAHIES | QQYHRLPLS | ND / ND / ND | 0/9 |

Repeated from above, the 3 best binders with a signal in all replicates:

CDR-L1,CDR-L2,CDR-L3,"replicates, log10 nM",control signals
KSSQSVLGEGNNKNSVA,WASTRES,QQYHRLPLS,-0.22 / 0.39 / -0.10,3/9 (5.05)
KSSFSVLYESGNKNSVA,WASRRES,QQYHRLPLS,0.23 / 0.31 / 0.61,0/9
KSSQSVLYESRNKNNVA,KASTRES,QQYHWLPLS,0.34 / 0.43 / 0.41,2/9 (5.11)

As a blank, each scFv also met three strains without target: over library AAYL50, 18% of these pairings were detected, typically at 4.19 and seldom below 2.99. For each scFv, signals with the empty controls are counted beside the result, with their mean in brackets.

The measurements come from Engelhart et al. 2022 (doi:10.1038/s41597-022-01779-4) through the FLAb antibody collection.